Measured values reported in publication PMC6369734, “Spy vs. spy: selecting the best reporter for ^19F NMR competition experiments” (Chemical Communications (Cambridge, England), 2019).

Key:
VHL (VBC complex) = VHL (VBC complex) (Homo sapiens, UniProt P40337); experiment: 19F CPMG NMR transverse relaxation rate (R2) and R2 contrast (C2) of spy molecule with and without protein; settings: for R2 contrast – C2: supplement 8.1
[1] = target: VHL (VBC complex: pVHL54-213, eloB1-104, eloC17-112) (Homo sapiens, UniProt P40337); experiment: Surface plasmon resonance (SPR) steady-state binding to immobilised biotinylated AviVBC
[2] = target: VHL (VBC complex), Hyp site (Homo sapiens, UniProt P40337); experiment: 19F NMR competition experiment, displacement of spy molecule 19; settings: 19 at 50 μM, VHL at 1.0 μM
[3] = Spy molecule 100 μM, no protein
[4] = read-out: K D, SPR, 20 °C, steady-state 1:1 fit, footnote b values fitted because RMAX was not reached experimentally
[5] = read-out: KD (Biacore T200 fit), SPR steady-state fit, supplement section 7

| R2 (VHL (VBC complex); Spy molecule 100 μM + VBC 1 μM) [s⁻¹] | R2 contrast – C2 (VHL (VBC complex); Spy molecule 100 μM + VBC 1 μM) [%] | R2 (VHL (VBC complex); [3]) [s⁻¹] | Kd [1, 4] [µM] | Kd [1, 5] [µM] | Displacement of spy molecule 19 [2] | binding kinetics / dissociation rates by SPR ([1]; SPR) | SMILES |
| --- | --- | --- | --- | --- | --- | --- | --- |
| 4.858 ± 0.123 | 76.0 ± 3.2 | 1.167 ± 0.014 | 24.8 | 24.8 | concentration dependent | – | Cc1ncsc1-c1ccc(CNC(=O)[C@@H]2C[C@@H](O)CN2C(=O)C(F)(F)F)cc1 |
| 3.116 ± 0.153 | 48.4 ± 5.6 | 1.609 ± 0.042 | 12.4 | 12.4 | – | – | Cc1ncsc1-c1ccc(CNC(=O)[C@@H]2C[C@@H](O)CN2C(=O)CC(F)(F)F)cc1 |
| 4.018 ± 0.245 | 0.8 ± 8.6 | 3.987 ± 0.241 | 0.0969 | 0.0969 | concentration dependent | too high to be determined accurately | Cc1ncsc1-c1ccc(CNC(=O)[C@@H]2C[C@@H](O)CN2C(=O)[C@@H](NC(=O)C(F)(F)F)C(C)(C)C)cc1 |

Where two headings read alike, the source gives them in different places.
